CycPeptMPDB entries from one study

PAMPA is the parallel artificial membrane permeability assay, which has no cells and reads passive diffusion.
Permeability is in 10^-6 cm/s, converted from the database's log10 values; higher is more permeable.

| SMILES | PAMPA (10^-6 cm/s) |
|---|---|
| CC(C)C[C@@H]1NC(=O)[C@H](CC(C)C)N(C)C(=O)[C@@H](C)N(C)C(=O)[C@H]2CCCN2C(=O)[C@H](Cc2ccccc2)NC(=O)CN(Cc2ccccc2)C(=O)[C@H]2CCCN2C1=O | 1.8 |
| CCCN1CC(=O)N(C)[C@H](CC(C)C)C(=O)N[C@H](CC(C)C)C(=O)N2CCC[C@H]2C(=O)N(C)[C@@H](CC(C)C)C(=O)N[C@@H](Cc2ccccc2)C(=O)N2CCC[C@H]2C1=O | 11 |
| CC(C)C[C@@H]1NC(=O)[C@H](C)N(C)C(=O)[C@H](Cc2ccccc2)NC(=O)CN(Cc2ccccc2)C(=O)[C@@H]2CCCN2C(=O)CN(Cc2ccccc2)C1=O | 3.3 |
| CC(C)C[C@@H]1NC(=O)[C@H]2CCCN2C(=O)C[C@H](Cc2ccccc2)NC(=O)[C@@H](CC(C)C)NC(=O)C[C@H](Cc2ccccc2)NC(=O)[C@H](Cc2ccccc2)NC1=O | 9.8 |
| CC(C)C[C@@H]1NC(=O)[C@@H]2CCCN2C(=O)CN(Cc2ccccc2)C(=O)[C@@H](CC(C)C)NC(=O)C[C@H](Cc2ccccc2)NC(=O)[C@H](Cc2ccccc2)NC1=O | 2.8 |
| CC(C)C[C@@H]1NC(=O)[C@@H](C)N(C)C(=O)[C@@H]2CCCN2C(=O)[C@H](Cc2ccccc2)NC(=O)[C@H](CC(C)C)N(C)C(=O)[C@@H]2CCCN2C(=O)CN(Cc2ccccc2)C1=O | 1.7 |
| CC(C)C[C@@H]1C(=O)N[C@@H](Cc2ccccc2)C(=O)N2CCC[C@@H]2C(=O)N(C)[C@H](C)C(=O)N[C@H](CC(C)C)C(=O)N[C@@H](Cc2ccccc2)CC(=O)N2CCC[C@@H]2C(=O)N1C | 1.1 |
| CC(C)C[C@@H]1NC(=O)[C@@H](CC(C)C)NC(=O)[C@H](C)N(C)C(=O)[C@H](Cc2ccccc2)NC(=O)[C@H](CC(C)C)N(C)C(=O)[C@@H]2CCCN2C1=O | 8.1 |
| CC(C)C[C@@H]1NC(=O)[C@@H]2CCCN2C(=O)[C@H](CC(C)C)N(C)C(=O)[C@@H](CC(C)C)N(C)C(=O)[C@H](C)NC(=O)[C@@H]2CCCN2C(=O)[C@H](Cc2ccccc2)NC1=O | 1.8 |
| CC(C)C[C@@H]1NC(=O)[C@H](C)NC(=O)[C@H](Cc2ccccc2)NC(=O)[C@@H](CC(C)C)NC(=O)[C@H]2CCCN2C(=O)[C@H](CC(C)C)NC1=O | 7.2 |
| CC(C)C[C@@H]1C(=O)N2CCC[C@H]2C(=O)N(C)[C@H](CC(C)C)C(=O)N[C@@H](Cc2ccccc2)C(=O)N2CCC[C@@H]2C(=O)N(C)[C@@H](C)C(=O)N(C)[C@@H](CC(C)C)C(=O)N1C | 1.4 |
| CC(C)C[C@@H]1NC(=O)[C@H](CC(C)C)N(C)C(=O)[C@H](C)N(C)C(=O)[C@H]2CCCN2C(=O)[C@H](Cc2ccccc2)NC(=O)[C@H](CC(C)C)N(C)C(=O)[C@@H]2CCCN2C1=O | 11 |
| CC(C)C[C@@H]1C(=O)N(C)[C@@H](CC(C)C)C(=O)N2CCC[C@@H]2C(=O)N(C)[C@H](CC(C)C)C(=O)N[C@@H](Cc2ccccc2)C(=O)N[C@@H](Cc2ccccc2)CC(=O)N1C | 4.2 |
| CC(C)C[C@@H]1NC(=O)[C@@H](C)NC(=O)[C@H](Cc2ccccc2)NC(=O)[C@@H](CC(C)C)NC(=O)[C@@H]2CCCN2C(=O)CN(Cc2ccccc2)C1=O | 0.23 |
| CC(C)C[C@@H]1NC(=O)[C@H](CC(C)C)N(C)C(=O)[C@H](C)N(C)C(=O)[C@H]2CCCN2C(=O)[C@H](Cc2ccccc2)NC(=O)[C@@H](CC(C)C)N(C)C(=O)[C@H]2CCCN2C1=O | 2.6 |
| CC(C)C[C@@H]1NC(=O)[C@H]2CCCN2C(=O)CN(Cc2ccccc2)C(=O)[C@@H](CC(C)C)N(C)C(=O)C[C@H](Cc2ccccc2)NC(=O)[C@@H]2CCCN2C(=O)[C@H](Cc2ccccc2)NC1=O | 1.3 |
| CC(C)C[C@@H]1C(=O)N[C@@H](Cc2ccccc2)C(=O)N2CCC[C@@H]2C(=O)N[C@H](C)C(=O)N(C)[C@H](CC(C)C)C(=O)N[C@H](CC(C)C)C(=O)N2CCC[C@@H]2C(=O)N1C | 1.9 |
| CC(C)C[C@@H]1C(=O)N[C@H](CC(C)C)C(=O)N2CCC[C@@H]2C(=O)N(Cc2ccccc2)CC(=O)N[C@@H](Cc2ccccc2)C(=O)N2CCC[C@@H]2C(=O)N(C)[C@H](C)C(=O)N1C | 2.3 |
| CC(C)C[C@@H]1NC(=O)[C@H](C)N(C)C(=O)[C@H](Cc2ccccc2)NC(=O)[C@@H](CC(C)C)NC(=O)[C@@H]2CCCN2C(=O)[C@@H](CC(C)C)N(C)C1=O | 15 |
| CC(C)C[C@H]1C(=O)N(Cc2ccccc2)CC(=O)N2CCC[C@H]2C(=O)N(C)[C@@H](CC(C)C)C(=O)N[C@@H](Cc2ccccc2)C(=O)N2CCC[C@H]2C(=O)N(C)[C@@H](C)C(=O)N1C | 3.3 |
| CC(C)C[C@@H]1C(=O)N[C@@H](Cc2ccccc2)C(=O)N[C@H](C)C(=O)N(C)[C@@H](CC(C)C)C(=O)N[C@H](CC(C)C)C(=O)N2CCC[C@H]2C(=O)N1C | 6.9 |
| CC(C)C[C@H]1NC(=O)C[C@H](Cc2ccccc2)NC(=O)[C@H]2CCCN2C(=O)[C@H](Cc2ccccc2)NC(=O)[C@@H](CC(C)C)NC(=O)[C@@H]2CCCN2C(=O)C[C@H](Cc2ccccc2)NC1=O | 1.5 |
| CC(C)C[C@@H]1C(=O)N2CCC[C@H]2C(=O)N(Cc2ccccc2)CC(=O)N[C@@H](Cc2ccccc2)C(=O)N[C@H](C)C(=O)N(C)[C@@H](CC(C)C)C(=O)N1C | 4.3 |

3 of these entries, quoted again:

| SMILES | PAMPA (10^-6 cm/s) |
|---|---|
| CC(C)C[C@@H]1C(=O)N2CCC[C@H]2C(=O)N(C)[C@H](CC(C)C)C(=O)N[C@@H](Cc2ccccc2)C(=O)N2CCC[C@@H]2C(=O)N(C)[C@@H](C)C(=O)N(C)[C@@H](CC(C)C)C(=O)N1C | 1.4 |
| CC(C)C[C@@H]1NC(=O)[C@@H]2CCCN2C(=O)CN(Cc2ccccc2)C(=O)[C@@H](CC(C)C)NC(=O)C[C@H](Cc2ccccc2)NC(=O)[C@H](Cc2ccccc2)NC1=O | 2.8 |
| CC(C)C[C@H]1C(=O)N(Cc2ccccc2)CC(=O)N2CCC[C@H]2C(=O)N(C)[C@@H](CC(C)C)C(=O)N[C@@H](Cc2ccccc2)C(=O)N2CCC[C@H]2C(=O)N(C)[C@@H](C)C(=O)N1C | 3.3 |

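The data file gives no further conditions (lipid, pH, time, direction or concentration), and values from different papers need not be comparable. The list need not hold all peptides of the study. Peptides that the database sets to -10, its floor, are left out.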

Collected by the curators of CycPeptMPDB (Li et al. 2023) from Townsend et al. 2020, doi:10.26434/chemrxiv.13335941.v1.